SMILES strings stand for the structures.

In turn, `O=[N+]([O-])c1cc([N+](=O)[O-])c2c([N+](=O)[O-])cccc2c1` displayed a logP of 2.3.

The record behind these values is the OPERA property sets (Mansouri et al. 2018).
